The compounds below were run against PI3-Kα (Mus musculus (Mouse), UniProt P42337) (assay: PI3-Kα Biochemical Assay (fluorescence polarization kinase assay)).
Description: Compounds of the present invention were evaluated for potency against PI3-Kα using an in vitro kinase assay. PI3-Kα activity is measured in vitro by determining the level of phosphorylation of the substrate PI(4,5)P2. The formation of product PI(3,4,5)P3 is monitored by binding to the Grip1 PH domain in a ligand displacement fluorescence polarization (FP) assay, in which the TAMRA-labeled PI(3,4,5)P3 complexed with Grip1 PH domain is displaced by PI(3,4,5)P3 formed in the PI3-Kα reaction resulting in a decrease in FP signal. Mouse PI3-Kα P110 and P85 subunits were co-expressed in insect cells and co-purified to homogeneity. PI(4,5)P2 were obtained from Cayman. TAMRA-labeled PI(3,4,5)P3 were from Echelon, Grip1 PH domain from Dundee and other reagents were from Sigma.
All assays were performed in a Corning solid black 96-well half area plate using LJL Analyst (Molecular Devices) at room temperature. The assay buffer contained 50 mM HEPES, pH 7.4, 150 mM NaCl, 5 mM DTT, and 0.05% CHAPS. Dry powder PI(4,5)P2 was dissolved in 50 mM TRIS, pH 8 to make 1 mM stock solution. The PI(4,5)P2 stock solution was then diluted in the assay buffer to 60 μM, and sonicated for 30 sec before use. To the assay plate, the following reagents were added in sequence: 10 μL of 60 μM PI(4,5)P2, 5 μL of 4 nM PI3-Kα, 2 μL of compound in 25% DMSO, 3 μL of mixture containing 200 μM ATP and 33 mM MgCl2. The final volume for the reaction was 20 μL. The reaction mixture was incubated at room temperature for 35 min. The reaction was then stopped by 20 μL of 20 mM EDTA. […] The FP signal was allowed to develop for 40 min before reading on a LJL analyst at excitation 535 nm and emission 580 nm.
The percentage of inhibition was calculated based on the following equation % inhibition=[1−(FPcompound−FPmax)/(FPmin−FPmax)]×100, where FPcompound is the FP reading at a given compound concentration, FPmin is the FP signal of the PI3-Kα reaction in the absence of a compound, and FPmax is the background FP signal in the absence of PI3-Kα and a compound. The IC50 was determined by fitting the FP signal vs. compound concentration to a sigmoidal dose response equation using GraphPad Prism curve fitting program.

The chains behind the UniProt entries cited, without tags or fusion partners.
UniProt P42337, whole entry: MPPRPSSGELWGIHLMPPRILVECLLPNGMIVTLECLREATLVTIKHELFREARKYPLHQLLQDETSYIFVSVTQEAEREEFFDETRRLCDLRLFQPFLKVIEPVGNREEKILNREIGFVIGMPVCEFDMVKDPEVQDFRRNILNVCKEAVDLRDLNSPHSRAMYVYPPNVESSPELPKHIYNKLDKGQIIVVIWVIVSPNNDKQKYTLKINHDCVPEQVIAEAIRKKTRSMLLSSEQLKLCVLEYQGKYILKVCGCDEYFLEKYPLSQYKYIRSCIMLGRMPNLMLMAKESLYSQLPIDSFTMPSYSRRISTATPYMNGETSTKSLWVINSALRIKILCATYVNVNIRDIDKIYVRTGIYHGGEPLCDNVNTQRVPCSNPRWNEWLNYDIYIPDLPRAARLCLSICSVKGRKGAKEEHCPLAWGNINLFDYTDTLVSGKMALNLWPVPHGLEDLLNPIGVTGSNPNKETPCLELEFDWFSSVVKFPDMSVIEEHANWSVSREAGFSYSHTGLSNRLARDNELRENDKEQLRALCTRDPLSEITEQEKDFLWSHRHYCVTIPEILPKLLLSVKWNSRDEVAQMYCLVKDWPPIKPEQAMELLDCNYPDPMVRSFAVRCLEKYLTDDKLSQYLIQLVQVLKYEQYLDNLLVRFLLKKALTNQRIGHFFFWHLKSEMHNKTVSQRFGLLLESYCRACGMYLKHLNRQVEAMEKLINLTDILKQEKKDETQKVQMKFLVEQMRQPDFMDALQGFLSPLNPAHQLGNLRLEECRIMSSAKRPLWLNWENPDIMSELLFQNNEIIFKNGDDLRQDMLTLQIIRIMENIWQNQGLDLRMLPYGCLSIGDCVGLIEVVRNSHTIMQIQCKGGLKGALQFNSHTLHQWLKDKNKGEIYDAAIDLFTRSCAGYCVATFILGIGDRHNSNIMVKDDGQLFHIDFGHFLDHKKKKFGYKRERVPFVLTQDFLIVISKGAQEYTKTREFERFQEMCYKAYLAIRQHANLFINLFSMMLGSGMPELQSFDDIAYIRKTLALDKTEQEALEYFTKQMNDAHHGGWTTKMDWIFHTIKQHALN

SMILES	IC50 [nM]
COc1ccc(-c2cc3c(C)nc(N)nc3n(C3CCC3)c2=O)cn1 [Compound 206, 2-amino-8-cyclobutyl-6-(6-methoxypyridin-3-yl)-4-methylpyrido[2,3-d]pyrimidin-7(8H)-one]	8.2
Cc1nc(N)nc2c1cc(-c1cn[nH]c1)c(=O)n2C(C)C [Compound 208, 2-amino-8-isopropyl-4-methyl-6-(1H-pyrazol-4-yl)pyrido[2,3-d]pyrimidin-7(8H)-one]	29.4
Cc1nc(N)nc2c1cc(-c1cnc3ccccc3c1)c(=O)n2[C@H]1CC[C@H](OCCO)CC1 [Compound 289, 2-amino-8-(trans-4-(2-hydroxyethoxy)cyclohexyl]-4-methyl-6-quinolin-3-ylpyrido[2,3-d]pyrimidin-7(8H)-one]	17.6
Cc1nc(N)nc2c1cc(-c1ccn[nH]1)c(=O)n2[C@H]1CC[C@H](OCCO)CC1 [Compound 301, 2-amino-8-[trans-4-(2-hydroxyethoxy)cyclohexyl]-4-methyl-6-(1H-pyrazol-3-yl)pyrido[2,3-d]pyrimidin-7(8H)-one]	14.6

The next compounds have a lower IC50 than those just listed; values first:

IC50 [nM]	SMILES
5.03	CCNc1nc(C)c2cc(-c3ccc(OC)nc3)c(=O)n(C3CCCC3)c2n1 [Compound 139, 8-cyclopentyl-2-(ethylamino)-6-(6-methoxypyridin-3-yl)-4-methylpyrido[2,3-d]pyrimidin-7(8H)-one]
2.96	COc1ccc(-c2cc3c(C)nc(N)nc3n(C3CCCC3)c2=O)cn1 [Compound 111, 2-amino-8-cyclopentyl-6-(6-methoxypyridin-3-yl)-4-methylpyrido[2,3-d]pyrimidin-7(8H)-one]
1.03	CNc1nc(C)c2cc(-c3ccc(OC)nc3)c(=O)n(C3CCCC3)c2n1 [Compound 140]
